This note sets out measurements from PubChem BioAssay AID449750 (Broad Institute, 2010).

This test in a line: non-covalent RecA intein splicing inhibitors, dose response, biochemical, cell-free, fluorescence, secondary screen (AID 449750).

On to `Clc1ccc(COC(Cn2ccnc2)c2ccc(Cl)cc2Cl)c(Cl)c1` (configuration not stated), for which the half-maximal activity concentration (AC50) was 6.55 µM.

Consider `Clc1ccc(COC(Cn2ccnc2)c2ccc(Cl)cc2Cl)cc1` (configuration not stated), for which the AC50 is 8.79 µM.
